miR-21 reporter = raises the signal of a miR-21 reporter | HeLa miR-21 FLuc reporter, luciferase, 48 h | Potency, µM (doses to about 38.3 µM) | 340,000 tested, under 10 active | AID 2288; active = well fitted rising curve with a large enough effect; inconclusive = small, poorly fitted or top-dose-only effect; inactive = no such curve, though single readings can be large or run the other way;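 note: miR-21 action dims this reporter so a rising signal means less miR-21 action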
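HeLa cells stably expressing CMV-driven firefly luciferase with a downstream miR-21 binding sequence, endogenously expressing miR-21, were treated with titrations (up to about 40uM final) for 48 hours at 37 degree Celsius. Luciferase luminescence was read after lysis.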
TDP1 block = blocks human tyrosyl-DNA phosphodiesterase 1; AID 485290; Potency, µM (series often up to 130 µM), actives largely listed as inhibitors; recombinant TDP1, AlphaScreen DNA substrate cleavage; Q9NUW8; 0.28% of 350,000 active; note: nearly all actives have a fitted effect of over 40% in size
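Signal: AlphaScreen proximity between streptavidin donor and anti-FITC acceptor beads on intact substrate. Reaction: Tdp1 1 nM, substrate 15 nM final, 5 min RT after 15 min compound preincubation.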
uPA generation = inhibitors of cell surface uPA generation | cell surface uPA generation assay, qHTS | Potency, µM (top dose mostly 38.3 µM), usual class: inhibitors | 0.31% of 330,000 active | AID 540303; active = well fitted inhibition curve with a large enough effect; inconclusive = small, poorly fitted or top-dose-only effect; inactive = no such curve, though single readings can be large or run the other way; tested in mouse RAW 264.7 cells; note: nearly all actives have a fitted effect of over 55% in size
DT40 TDP1 CPT = DT40-hTDP1 cell growth loss with CPT; chicken DT40 Tdp1-/-;hTDP1 cells + 20 nM CPT, ATP luminescence, 48 h; 12% of 420,000 active; Potency, µM (top dose mostly 46.2 µM), actives largely listed as inhibitors; note: nearly all actives have a fitted effect of over 55% in size
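Cell growth measured by CellTiter-Glo luminescence after a minimum 48 h, 37 C compound exposure with 20 nM CPT in Tdp1-knockout DT40 cells stably expressing hTDP1, seeded 400/well; qHTS titration format.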
DT40 TDP1 no CPT = qHTS for Inhibitors of human tyrosyl-DNA phosphodiesterase 1 (TDP1): qHTS in cells in absence of CPT. DT40 Tdp1-/- hTDP1 cells, no CPT, ATP luminescence, 48 h. Potency, µM (series often up to 46.2 µM), actives largely listed as inhibitors. 15% of 420,000 active. AID 686978, 2013; note: nearly all actives have a fitted effect of over 55% in size
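A cellular qHTS used chicken DT40 cells lacking endogenous Tdp1 but carrying stably transfected human TDP1. Compounds were applied without camptothecin, and cell growth kinetics were judged by ATP-dependent luminescence after ≥48 hr.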
Hits are given with their value; 0 = inactive; ? = inconclusive; - = no result given. Sampled rows, rich in hits. Any-hit rate of the full collection: about 16%. Unless noted, calls come from the whole dose curve; as a rule, active = well fitted curve in the direction sought with a large enough effect; inconclusive = small, poorly fitted or top-dose-only effect, or another doubt; inactive = no such curve, though single readings can be large; an effect the other way counts as inactive or inconclusive.

SMILES	miR-21 reporter	TDP1 block	uPA generation	DT40 TDP1 CPT	DT40 TDP1 no CPT
Cc1cc(NC(=O)NCc2ccc3c(c2)CCN3C(=O)c2ccccc2)ccc1Br	0	0	-	?	16µM
O=C(NCc1ccc2c(c1)CCN2C(=O)c1ccc(F)cc1)c1ccc(Br)o1	?	0	-	5.2µM	4.1µM
CC(=O)Nc1cccc(C(=O)NCc2ccc3c(c2)CCN3C(=O)c2ccccc2)c1	0	0	-	?	?
COc1cc2cc(CCCOC(=O)c3ccc(C#N)cc3)oc(=O)c2cc1OC	-	0	0	0	0
CCOc1ccc(/C=N/NC(=O)c2ccccc2NC(=O)c2ccc(OC)cc2)cc1	0	0	0	?	?
Cc1ccc(C(C)NC(=O)c2cccs2)cc1C (stereo not given)	-	-	0	0	?
COc1cc(NC(=O)c2noc3c2CC(C(C)(C)C)CC3)cc(OC)c1OC (stereo not given)	0	0	-	21µM	16µM
CC(OC(=O)CCc1cc(C(C)(C)C)c(O)c(C(C)(C)C)c1)C(=O)NC1CC1 (stereo not given)	-	0	0	?	?
CC(COS(N)(=O)=O)Cc1ccc(C(F)(F)F)cc1 (stereo not given)	0	-	0	?	?
COc1ccc(NC(=O)CN2CCCN(Cc3ccc(Cl)cc3)S2(=O)=O)cc1Cl	0	0	-	12µM	10µM
COc1ccc(OC)c(NC(=O)CN2CCCN(Cc3ccccc3Cl)S2(=O)=O)c1	0	0	-	?	23µM
COc1ccc(NC(=O)CN2CCN(Cc3ccccc3)S2(=O)=O)c(OC)c1	0	0	-	0	0
NC(=O)C1=CC2C3C=CC2(O)C(=O)OC3O1 (stereo not given)	-	-	0	5.2µM	5.8µM
Fc1ccc(/C=N/NC(=S)Nc2ccc(Cl)cc2Cl)cc1	0	0	0	7.3µM	5.2µM
COc1ccc(NC(=S)N/N=C/c2ccc(F)cc2)cc1OC	0	0	0	?	?
Fc1ccc(NC(=S)N/N=C/c2ccc(F)c(F)c2)cc1	0	0	0	4.1µM	6.5µM
Cc1ccc(NC(=S)N/N=C/c2ccc(Cl)c([N+](=O)[O-])c2)cc1	0	0	0	0	0
Fc1ccc(/C=N/NC(=S)Nc2ccc(Cl)cc2)cc1F	0	0	0	?	23µM
COc1ccc(NC(=S)N/N=C/c2ccc(F)c(F)c2)cc1	0	-	0	?	?
Cn1cc(CN2CCC(CO)(CCCc3ccccc3)CC2)c(-c2ccccc2)n1	0	-	0	16µM	?
CC(=O)c1cccc(CN2CCC(CO)(CCCc3ccccc3)CC2)c1	0	0	0	?	23µM
O=C(O)c1ccc(N2C(=O)CC(N3CCN(c4cccc(C(F)(F)F)c4)CC3)C2=O)cc1 (stereo not given)	0	0	0	0	0
O=C(O)c1ccc(N2C(=O)CC(N3CCN(c4cccc(Cl)c4)CC3)C2=O)cc1 (stereo not given)	0	-	0	0	3.3µM
Cc1cc(C)n(C2CC(=O)N(c3cccc(Cl)c3)C2=O)n1 (stereo not given)	0	0	-	15µM	?
CCOC(=O)c1ccc(N2C(=O)CC(N3CCN(Cc4ccccc4)CC3)C2=O)cc1 (stereo not given)	0	0	0	0	0
SMILES	miR-21 reporter	TDP1 block	uPA generation	DT40 TDP1 CPT	DT40 TDP1 no CPT
CC1CCN(C2CC(=O)N(c3ccccc3)C2=O)CC1 (stereo not given)	0	0	0	21µM	0
O=C1CC(N2CCOCC2)C(=O)N1c1cccc(Cl)c1 (stereo not given)	0	0	0	0	0
CCOC(=O)c1ccc(N2C(=O)CC(N3CCCC(C)C3)C2=O)cc1 (stereo not given)	0	0	-	13µM	?
CCOc1ccc(CCNC(=O)C2CCCN(C(=O)N(C)C)C2)cc1OCC (stereo not given)	0	0	0	0	0
COc1cc(NS(=O)(=O)c2ccc3c(c2)CC(=O)N3)cc(OC)c1OC	0	0	-	0	0
Cc1ccc(NNC(=O)Nc2ccc(Cl)cc2)nn1	0	-	0	21µM	?
CCC(=NCc1ccc(Cl)c(Cl)c1)c1nc(-c2ccco2)oc1O	0	0	0	?	?
COCCNc1nc(-c2cc(F)ccc2C)c2sc(-c3ccccc3)cc2n1	-	-	-	26µM	15µM
COCCNc1nc(-c2ccccc2F)c2sc(-c3ccccc3)cc2n1	-	-	-	18µM	?
O=C(Nc1nc2c(F)cccc2s1)c1ccc(S(=O)(=O)N2CCOCC2)cc1	0	0	-	?	0
O=C(Nc1nc2ccc(F)cc2s1)c1ccc([N+](=O)[O-])o1	-	-	-	6.5µM	7.3µM
O=C(Nc1nc2c(F)cccc2s1)c1ccc([N+](=O)[O-])o1	0	-	0	13µM	16µM
O=C(O)C1CC1C(=O)Nc1nc2c(Cl)cccc2s1 (stereo not given)	0	-	0	0	0
O=C(Nc1nc2c(Cl)cccc2s1)c1ccc([N+](=O)[O-])o1	0	-	0	21µM	16µM
O=C(Oc1cncc(Cl)c1)c1sccc1Cl	-	-	0	0	0
O=C(CSc1nncn2c1cc1sccc12)Nc1ccccc1C(F)(F)F	0	0	-	0	0
COC(=O)c1cc2c(cc1N)OCCO2	0	0	-	0	0
CN(C(=O)COC(=O)c1cc2ccccc2cc1O)C1CCCCC1	-	0	0	0	0
CC(Sc1nc(N)c2c3c(sc2n1)CSC(C)(C)C3)C(=O)Nc1ccccc1 (stereo not given)	0	0	0	18µM	13µM
CNc1nc2sc3c(c2c(=O)n1C)CC(C)(C)SC3	0	0	0	0	?
CCOC(=O)C1CCN(c2cc3c(cc2NC(=O)c2cc(OC)ccc2Br)n(C)c(=O)n3C)CC1	0	0	0	16µM	12µM
Cn1c(=O)n(C)c2cc(N3CCOCC3)c(NC(=O)c3ccccc3Br)cc21	0	0	-	?	0
CCOC(=O)C1CCN(c2cc3c(cc2NC(=O)c2ccccc2Br)n(C)c(=O)n3C)CC1	0	0	0	?	18µM
CCCCN(C)c1c(C)nc2ccc(C(=O)Nc3ccc(OC)c(OC)c3)cn12	-	-	-	?	15µM
CCCCN(C)c1c(C)nc2ccc(C(=O)N(C)CCN(C)C)cn12	-	-	-	0	0
SMILES	miR-21 reporter	TDP1 block	uPA generation	DT40 TDP1 CPT	DT40 TDP1 no CPT
CCCCN(C)c1c(C)nc2ccc(C(=O)Nc3cc(-c4ccccc4)ccc3OC)cn12	-	-	-	13µM	16µM
COc1ccccc1C(C)NC(=O)c1cc(S(=O)(=O)N2CCCCC2)ccc1C (stereo not given)	-	0	0	?	?
CCOC(=O)C(=CNc1ccc(C)cc1C)C(=O)OCC	0	0	0	?	16µM
CCOC(=O)C(=CNc1ccc(C(F)(F)F)cc1)C(=O)OCC	0	0	0	0	0
CCOC(=O)C(=CNc1cc(C)nn1-c1ccc(Cl)cc1)C(=O)OCC	0	0	0	23µM	?
CCC(=O)OCC(=O)Nc1ccc(OC)cc1[N+](=O)[O-]	0	0	0	0	0
